# Patent publication US11066368B2, “Process for the preparation and particle size reduction of pirfenidone” (Laurus Labs Limited, priority 2016, dated 2021)
# Experiment: Shock sensitive test by fall hammer test
# Conditions: hammer 5 kg, height 80 cm
smiles,measurement,value
"Cc1ccc(=O)n(-c2ccccc2)c1 [Pirfenidone, 5-methyl-1-phenyl-2-1(H)-pyridone]",Shock sensitivity (fall hammer result),Detonation was observed
